Source: PubChem
HCMV NEC inh: cytomegalovirus nuclear egress complex inhibition; HTRF UL50-UL53 interaction, normalized percent inhibition; 190,000 tested, 0.15% active; inhibition, % (no concentration beside the values); in the data active = inhibition above about 27%, passing the limit was not always enough
GIV-Gai inh: GIV-Galpha-i interaction inhibition. AID 1224905. actives 0.42% (n = 210,000). percent of control (FP), % (test concentration not listed). Galpha-i3/FITC-GIV peptide fluorescence polarization, 90 min; stronger effect = lower value; scaled: aluminum fluoride 0%, vehicle 100%;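 active = replicate mean at 85% of control or lower, very high polarization wells dropped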;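 also: wells of about 15 µL received 100 nL stock; the first replicate is given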
Each line names hits and unclear results; the compound was inactive in the other large screens. The entries come from a sample that favours hits as a whole.

Cc1cc(NS(=O)(=O)c2ccc(NC(=O)c3cc(-c4ccc(C)o4)nc4ccccc34)cc2)nc(C)n1	none
O=C(O)c1ccc(N=Cc2ccc(-c3ccc(Cl)cc3)o2)cc1	none (no result: GIV-Gai inh)
CCC(=O)NC1=NC(=O)/C(=C/c2ccc(-c3ccccc3F)o2)S1	none
O=c1c2cccc3cccc(c32)c2nc3ccccc3n12	none (no result: HCMV NEC inh)
C=CCNc1ccc2c3c1cccc3c(=O)n1c3ccccc3nc21	GIV-Gai inh -52 (no result: HCMV NEC inh)
COc1ccc(-c2cc3ncc4c(n3n2)-c2ccccc2OC4)cc1	none
CCOc1ccc([C@@H]2[C@H](C(=O)O)c3ccccc3C(=O)N2Cc2ccccc2)c(O)c1	none (no result: GIV-Gai inh)
COc1ccc(OC)c(S(=O)(=O)Nc2cnc(N3CCCC3)c(C(=O)O)c2)c1	none
Cc1cc(C)c(S(=O)(=O)Nc2cnc(N3CCCC3)c(C(=O)O)c2)cc1C	GIV-Gai inh 72
CCCCOC(=O)c1ccc(NC(=O)c2cc(=O)c3ccccc3o2)cc1	none
CCCCOC(=O)c1cccc(NC(=O)c2cc3ccccc3o2)c1	HCMV NEC inh 138
O=S(=O)(c1ccc(-c2cnc(C3CCCC3)o2)s1)N1CCOCC1	none (no result: HCMV NEC inh)
COc1ccc(NC(=O)n2ncc3ccccc32)c(OC)c1	none
CSc1sc(C(=O)O)c(C)c1C(C)O (configuration not stated)	none
COc1cccc2c1Oc1nc(-c3ccccc3)nc(SCC(=O)N(C)c3ccccc3)c1C2	GIV-Gai inh -21 (no result: HCMV NEC inh)
COC(=O)CSc1nc(-c2ccccc2)nc2c1Cc1cccc(OC)c1O2	none
N#CC1=C(N)SC(N)=C(C#N)C1c1ccncc1	none (no result: GIV-Gai inh)
N#CC1=C(N)SC(N)=C(C#N)C1c1ccccc1	GIV-Gai inh -0.3
CCCNC(=O)CN1C(=O)CCc2cc(S(=O)(=O)N3CCC(C)CC3)ccc21	none
O=c1oc2cc(O)ccc2cc1-c1nc(-c2ccccc2F)no1	GIV-Gai inh -62
O=c1oc2cc(O)ccc2cc1-c1csc(-c2ccccc2Cl)n1	none
CNC(=O)c1cn2c3c(ccc(Cl)c3c1=O)OC(C)C2 (configuration not stated)	HCMV NEC inh 50
CC(C)NC(=O)c1cn2c3c(ccc(Cl)c3c1=O)OC(C)C2 (configuration not stated)	none
Cc1cc(C)n(C)c(=O)c1C(=O)O	none (no result: HCMV NEC inh)
Cc1cc(=O)[nH]c(O)c1C(=O)O	HCMV NEC inh 65
CCSc1nc2c(c(=O)n1CC)SCC2	none
CCc1cc(Sc2ccc(N)cc2)n2ncnc2n1	none (no result: HCMV NEC inh)
COC(=O)C1=C(C)N(Cc2ccccc2)C(=O)/C1=C\c1cccc(Cl)c1	GIV-Gai inh 51 (no result: HCMV NEC inh)
COC(=O)C1=C(C)N(Cc2ccccc2)C(=O)/C1=C\c1cccc(O)c1	none
O=C(c1noc2c1COc1ccccc1-2)N1CC=C(c2ccccc2)CC1	none
Nc1nnnn1N=Cc1ccc(-c2ccc3c(c2)COC3=O)o1	GIV-Gai inh 36 (no result: HCMV NEC inh)
N#CC(C#N)=Cc1ccc(-c2ccc3c(c2)COC3=O)o1	none
CC1CCC2[C@](C)(CO)[C@@H](O)CC[C@]2(C)[C@@]12CCC1(CCOC1)O2 (some centres not stated)	none
CN(C)c1ccc(/C=C2\C(=O)NC(=O)N(C3CCCC3)C2=O)o1	GIV-Gai inh -42 (no result: HCMV NEC inh)
O=C1NC(=O)N(C2CCCCC2)C(=O)/C1=C\c1ccc(-c2ccc(C(=O)O)cc2)o1	none
CCOC(=O)Cn1nnnc1C(C(C)C)N(Cc1ccc(F)cc1)Cc1cc2cc3c(cc2[nH]c1=O)OCO3 (configuration not stated)	none
COC(=O)c1ccc2c(c1)C1C=CCC1C(c1cccc3ccccc13)N2 (configuration not stated)	none
O=C(O)c1ccc2c(c1)C1C=CCC1C(c1cccc3ccccc13)N2 (configuration not stated)	HCMV NEC inh 35
CCS(=O)(=O)N1N=C(c2ccccc2)CC1c1cc2cc3c(cc2nc1Cl)OCCO3 (configuration not stated)	GIV-Gai inh -53 (no result: HCMV NEC inh)
CC(=O)N1N=C(c2ccccc2)CC1c1cc2cc3c(cc2nc1Cl)OCO3 (configuration not stated)	none
CSc1ccccc1NC(=O)COC(=O)CN1C(=O)CSc2ccccc21	none (no result: GIV-Gai inh)
Cc1cc(C)cc(OC(C)C(=O)Nc2ccc3c(c2)NC(=O)CO3)c1 (configuration not stated)	none
CN1c2ccc(Cl)cc2-c2nc(SCC(=O)NC3CCCCC3)ncc2S1(=O)=O	none
CN1c2cc(Cl)ccc2-c2nc(SCC(=O)NC3CCCCC3)ncc2S1(=O)=O	HCMV NEC inh 67
CCN(CC)C(=O)Cn1c(C)c(C#N)c2ccccc21	none
Cc1ccc(C(O)CN=Cc2c(O)ccc3ccccc23)cn1 (configuration not stated)	HCMV NEC inh 62 (no result: GIV-Gai inh)
Cc1ncc(CO)c(/C=N/N=C/c2c(O)ccc3ccccc23)c1O	none
CN1CCN(Cc2c(O)ccc3cc(-c4ccccc4)c(=O)oc23)CC1	none (no result: HCMV NEC inh)
CC1CCCN(Cc2c(O)ccc3cc(-c4nc5ccccc5[nH]4)c(=O)oc23)C1 (configuration not stated)	GIV-Gai inh -33
CCOc1cccc2cc(-c3nc4ccccc4[nH]3)c(=O)oc12	none (no result: GIV-Gai inh)
CC1CCCN(C/C(O)=C(\C#N)c2nc3ccccc3[nH]2)C1 (configuration not stated)	none
CCC1CCCCN1Cc1c(O)ccc2cc(-c3nc4ccccc4[nH]3)c(=O)oc12 (configuration not stated)	GIV-Gai inh -42 (no result: HCMV NEC inh)
CN1CCN(Cc2c(O)ccc3cc(-c4nc5ccccc5[nH]4)c(=O)oc23)CC1	GIV-Gai inh -75
COc1ccc(C(CC(=O)NCc2cccnc2)N2Cc3ccccc3C2=O)cc1 (configuration not stated)	none
CCN1CCN(c2nc(-c3ccc([N+](=O)[O-])cc3)nc3ccccc23)CC1	none (no result: HCMV NEC inh)
O=C(CCCn1c(=O)c2cccn2c2ccc(F)cc21)NCc1ccccn1	none
COc1ccc(N=C(N)/C(C#N)=C/c2[nH]c3ccccc3c2O)cc1	none (no result: HCMV NEC inh)
N#C/C(=C\c1[nH]c2ccccc2c1O)C(=N)N1CCOCC1	GIV-Gai inh -18 (no result: HCMV NEC inh)
COc1ccc(-c2noc(N3CCC(C(=O)Nc4cccc(Cl)c4)CC3)n2)cc1	none
CCN1/C(=C\C=C\c2n(CC)c3cc([N+](C)(C)C)ccc3[n+]2CC)N(CC)c2cc([N+](C)(C)C)ccc21	none (no result: HCMV NEC inh)
CCN1/C(=C/C=C/c2n(CC)c3cc(Cl)ccc3[n+]2Cc2ccccc2)N(Cc2ccccc2)c2ccc(Cl)cc21	GIV-Gai inh -62 (no result: HCMV NEC inh)
COC(=O)c1ccc(/C=N/OCC(=O)N(C)C2CCCCC2)cc1	none (no result: GIV-Gai inh)
CC(C)(C)C1(C)OC(=O)C(=Cc2ccc(C(=O)O)cc2)C(=O)O1 (configuration not stated)	none
CN(C)c1ccc(/C=C2/C(=O)c3ccc(C(=O)O)cc3C2=O)cc1	GIV-Gai inh -73
O=C(Nc1ccc(Oc2cc3ccccc3cc2Cl)c(Cl)c1)c1cc(Br)cc(Br)c1O	none (no result: HCMV NEC inh)
Oc1ccc2ccccc2c1C=Nc1c(F)c(F)c(F)c(F)c1F	none (no result: GIV-Gai inh)
Oc1ccc2ccccc2c1/C=N/c1nccs1	HCMV NEC inh 108
CCOc1ccc(S(=O)(=O)N2CCN(c3cc(=O)n4nc(-c5ccccc5)sc4n3)CC2)cc1	HCMV NEC inh 45
CC(C)c1ccc(S(=O)(=O)N2CCN(c3cc(=O)n4nc(-c5ccccc5)sc4n3)CC2)cc1	HCMV NEC inh 43
Cc1ccccc1-c1nn2c(=O)cc(N3CCN(S(=O)(=O)Cc4ccccc4)CC3)nc2s1	none
Cc1cccc(-c2nn3c(=O)cc(N4CCN(S(=O)(=O)c5ccccc5C)CC4)nc3s2)c1	none
CCN(CC)Cc1c(O)ccc2c1O/C(=C\c1ccccc1Cl)C2=O	none
